Reference: PubChem BioAssay AID588354 (The Scripps Research Institute Molecular Screening Center, 2011)
This is a selection; strong and weak results do not stand in their true shares. Some results for these compounds are left out of this collection, so the calls shown say nothing about other tests. The source made the active and inactive calls.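 How the source made its calls: active means inhibition above the campaign mean plus 3 SD, with each screening campaign given its own cutoff (cut at about 60% in these data); inactive means the rest.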

Sequences of proteins named here, by UniProt entry; tags and fusion partners are left off.
UniProt Q15788, whole entry: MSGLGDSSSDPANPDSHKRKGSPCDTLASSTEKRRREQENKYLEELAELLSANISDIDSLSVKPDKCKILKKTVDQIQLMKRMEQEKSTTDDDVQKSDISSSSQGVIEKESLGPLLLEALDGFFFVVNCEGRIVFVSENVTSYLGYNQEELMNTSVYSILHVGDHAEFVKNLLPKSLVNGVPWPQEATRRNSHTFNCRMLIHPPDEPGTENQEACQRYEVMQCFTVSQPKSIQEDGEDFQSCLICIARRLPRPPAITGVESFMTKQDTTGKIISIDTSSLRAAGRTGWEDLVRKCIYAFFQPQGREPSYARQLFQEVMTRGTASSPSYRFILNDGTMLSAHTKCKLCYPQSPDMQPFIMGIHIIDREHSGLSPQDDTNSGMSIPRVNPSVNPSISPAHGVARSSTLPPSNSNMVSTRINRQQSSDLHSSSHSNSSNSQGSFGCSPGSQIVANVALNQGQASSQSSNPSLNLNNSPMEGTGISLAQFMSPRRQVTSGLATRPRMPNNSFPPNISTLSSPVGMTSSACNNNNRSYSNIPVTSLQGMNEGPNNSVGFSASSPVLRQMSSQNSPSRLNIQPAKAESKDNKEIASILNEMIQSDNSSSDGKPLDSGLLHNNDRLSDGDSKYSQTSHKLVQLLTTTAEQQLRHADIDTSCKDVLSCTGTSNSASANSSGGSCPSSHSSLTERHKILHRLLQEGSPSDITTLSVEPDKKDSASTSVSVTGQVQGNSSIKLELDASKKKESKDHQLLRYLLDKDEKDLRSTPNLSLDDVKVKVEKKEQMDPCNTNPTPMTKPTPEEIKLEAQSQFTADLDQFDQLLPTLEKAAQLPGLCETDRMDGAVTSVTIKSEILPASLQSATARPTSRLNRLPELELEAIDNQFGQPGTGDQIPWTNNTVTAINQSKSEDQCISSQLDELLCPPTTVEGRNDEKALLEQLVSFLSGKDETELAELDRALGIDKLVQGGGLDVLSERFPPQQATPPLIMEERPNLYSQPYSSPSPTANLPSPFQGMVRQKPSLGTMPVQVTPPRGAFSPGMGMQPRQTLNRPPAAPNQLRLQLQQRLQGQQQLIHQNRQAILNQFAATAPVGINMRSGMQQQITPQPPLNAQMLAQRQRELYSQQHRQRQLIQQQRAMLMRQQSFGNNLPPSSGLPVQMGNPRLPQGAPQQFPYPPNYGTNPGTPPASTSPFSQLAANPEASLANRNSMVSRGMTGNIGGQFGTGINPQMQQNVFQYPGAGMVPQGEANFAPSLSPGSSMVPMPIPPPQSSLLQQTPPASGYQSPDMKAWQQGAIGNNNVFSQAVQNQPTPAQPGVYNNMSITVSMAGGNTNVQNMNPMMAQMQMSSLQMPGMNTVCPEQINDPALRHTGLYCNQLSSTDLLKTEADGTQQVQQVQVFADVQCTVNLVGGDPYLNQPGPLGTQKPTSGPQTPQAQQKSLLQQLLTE

The molecules below were run against Nuclear receptor coactivator 1 (Homo sapiens) (UniProt Q15788) (assay: SRC1 coactivator transcriptional activity inhibitors, primary screen, cell-based, luminescence (AID 588354;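 further: 0% = DMSO treated cells and 100% = gossypol at 36 µM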)). Details: HEK293 GAL4-SRC1 luciferase reporter, at 3.6 µM, stronger effect = higher value.
In the case of `O=C(NCC1(N2CCCCC2)CCCCC1)c1cc([N+](=O)[O-])ccc1Cl`, the inhibition is reported as inactive: -18.3%.
For `CN1[C@@H]2CC[C@H]1CC(OC(=O)C(O)(c1ccccc1)c1ccccc1)C2` (stereo partly specified), the inhibition was inactive: -17.1%.
`COc1cc(SC)ccc1C(=O)NCC1(N(C)C)CCCCC1` was tested, and the inhibition was inactive: 4.44%.
For `CCN(CC)CC(C)C(C)OC(=O)C(O)(c1ccccc1)c1ccccc1` (stereo unspecified), the inhibition was inactive: 9.15%.
In the case of `CC(C)N1C(=O)CC2(CCN(CCOC(=O)C(O)(c3ccccc3)c3ccccc3)CC2)C1=O`, the inhibition is reported as inactive: -3.66%.
For `Cc1ccc(C(=O)NCC2(N3CCCCC3)CCCCC2)cc1`, the inhibition was inactive: 0.44%.
With `CN(C)c1ccc(C(=O)NCC2(N(C)C)CCCCC2)cc1` the inhibition was inactive: -5.84%.
With `CN(C)C1CCCC1OC(=O)C(O)(c1ccccc1)c1ccccc1` (stereo unspecified) the inhibition was inactive: -20.3%.
In the case of `Cc1ccccc1C(=O)NCC1(N2CCCCC2)CCCCC1`, the inhibition is reported as inactive: 5.77%.
With `O=C(NCC1(N2CCCCC2)CCCCC1)c1cc(F)c(F)cc1Cl` the inhibition was inactive: -13.1%.
For `C=CCN1CCN(CCOC(=O)C(O)(c2ccccc2)c2ccccc2)CC1`, the inhibition was inactive: -0.47%.
`COc1ccc(C(=O)NCC2(N(C)C)CCCCC2)cc1` was tested, and the inhibition was inactive: 13.6%.
In the case of `O=C(NCC1(N2CCCCC2)CCCCC1)c1cccc(Br)c1`, the inhibition is reported as inactive: -7.65%.
In the case of `CCN1CCCC(OC(=O)C2(O)c3ccccc3C=Cc3ccccc32)C1` (stereo unspecified), the inhibition is reported as inactive: -13.7%.
In the case of `Cc1cc(C(=O)NCC2(N3CCCCC3)CCCCC2)ccc1[N+](=O)[O-]`, the inhibition is reported as inactive: -12.3%.
In the case of `CN(C)C1(CNC(=O)c2ccc(Br)cc2)CCCCC1`, the inhibition is reported as inactive: -10.7%.
For `COc1cc(C(=O)NCC2(N(C)C)CCCCC2)c([N+](=O)[O-])cc1OC`, the inhibition was inactive: 3.1%.
For `COc1ccc(Cl)cc1C(=O)NCC1(N(C)C)CCCCC1`, the inhibition was inactive: 14.1%.
For `COc1cccc(C(=O)NCC2(N3CCCCC3)CCCCC2)c1`, the inhibition was inactive: -21.4%.
With `O=C(NCC1(N2CCCCC2)CCCCC1)c1cccc(Cl)c1` the inhibition was inactive: 1.04%.
For `O=C(OC1CN2CCC1CC2)C(CO)(c1ccccc1)c1ccccc1` (stereo unspecified), the inhibition was inactive: -15%.
For `C=C(C)C#CC(O)(C(=O)OC1CCN(C)CC1)c1ccccc1` (stereo unspecified), the inhibition was inactive: -15.7%.
With `COc1ccc(Br)c(C(=O)NCC2(N3CCCCC3)CCCCC2)c1` the inhibition was inactive: 15.3%.
`O=C(OCCN1CCCC1)C(O)(c1ccccc1)c1ccccc1` was tested, and the inhibition was inactive: -11.7%.
`CC(C)Oc1ccc(C(=O)NCC2(N(C)C)CCCCC2)cc1` was tested, and the inhibition was inactive: 18.2%.
With `CN(C)c1cccc(C(=O)NCC2(N(C)C)CCCCC2)c1` the inhibition was inactive: -8.4%.
